Test [1] concerns the target Neuropeptide FF receptor 1 (Homo sapiens, UniProt Q9GZQ6, Y216A). The experiment in a line: Agonist activity at human NPFF1 receptor Y5.38A mutant assessed as [3H]inositol phosphate accumulation after 2 hrs by liquid scintillation counting. It is filed as functional. In a few lines:
(§1)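 IP accumulation in COS-7 cells transiently cotransfected with human NPFFR (Ala point mutant or wt) plus chimeric G protein. Cells seeded at 60,000/well and grown to subconfluency. Compounds were dissolved in DMSO and diluted in DMEM with 10 mM LiCl (1% v/v DMSO final). Stimulation lasted 2 h.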

Sequences of proteins named here, by UniProt entry; tags and fusion partners are left off. A change or cut given only in a name is not applied to a line headed by its entry.
UniProt Q9GZQ6, whole entry Y216A: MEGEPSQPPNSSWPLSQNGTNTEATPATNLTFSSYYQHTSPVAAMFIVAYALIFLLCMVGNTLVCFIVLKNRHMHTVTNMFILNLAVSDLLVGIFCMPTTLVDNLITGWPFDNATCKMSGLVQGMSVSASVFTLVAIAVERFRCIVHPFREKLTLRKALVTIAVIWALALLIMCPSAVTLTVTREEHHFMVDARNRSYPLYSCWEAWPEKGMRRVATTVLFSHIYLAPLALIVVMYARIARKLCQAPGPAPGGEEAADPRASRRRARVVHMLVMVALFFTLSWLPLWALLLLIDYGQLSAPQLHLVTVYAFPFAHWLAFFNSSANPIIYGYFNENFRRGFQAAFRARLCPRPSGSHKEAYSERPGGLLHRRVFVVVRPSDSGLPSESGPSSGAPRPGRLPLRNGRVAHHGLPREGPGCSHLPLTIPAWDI
UniProt Q9GZQ6, whole entry Y309A: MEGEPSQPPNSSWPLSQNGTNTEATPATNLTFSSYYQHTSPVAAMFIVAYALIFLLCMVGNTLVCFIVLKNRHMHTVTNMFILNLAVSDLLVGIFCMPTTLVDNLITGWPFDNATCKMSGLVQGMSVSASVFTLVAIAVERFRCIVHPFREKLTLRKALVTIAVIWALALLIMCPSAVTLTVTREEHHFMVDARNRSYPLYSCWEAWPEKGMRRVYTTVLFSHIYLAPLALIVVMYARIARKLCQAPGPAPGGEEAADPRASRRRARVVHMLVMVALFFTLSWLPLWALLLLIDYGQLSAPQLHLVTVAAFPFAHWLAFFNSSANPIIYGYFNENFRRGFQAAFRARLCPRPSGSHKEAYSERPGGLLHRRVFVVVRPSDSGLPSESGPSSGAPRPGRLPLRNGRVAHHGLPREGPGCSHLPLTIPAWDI
UniProt Q9GZQ6, whole entry F311A: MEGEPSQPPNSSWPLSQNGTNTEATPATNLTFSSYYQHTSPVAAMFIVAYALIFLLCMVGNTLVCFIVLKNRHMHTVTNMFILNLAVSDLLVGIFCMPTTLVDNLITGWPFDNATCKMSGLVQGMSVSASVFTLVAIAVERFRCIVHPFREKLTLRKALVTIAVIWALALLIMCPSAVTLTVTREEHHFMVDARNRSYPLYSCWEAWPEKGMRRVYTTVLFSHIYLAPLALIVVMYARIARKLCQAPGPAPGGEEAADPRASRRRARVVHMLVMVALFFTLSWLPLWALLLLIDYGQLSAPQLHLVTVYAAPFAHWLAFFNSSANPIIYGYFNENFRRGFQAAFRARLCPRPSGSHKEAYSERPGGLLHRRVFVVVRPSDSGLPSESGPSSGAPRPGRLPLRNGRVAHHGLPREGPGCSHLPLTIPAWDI
UniProt Q9GZQ6, whole entry H304A: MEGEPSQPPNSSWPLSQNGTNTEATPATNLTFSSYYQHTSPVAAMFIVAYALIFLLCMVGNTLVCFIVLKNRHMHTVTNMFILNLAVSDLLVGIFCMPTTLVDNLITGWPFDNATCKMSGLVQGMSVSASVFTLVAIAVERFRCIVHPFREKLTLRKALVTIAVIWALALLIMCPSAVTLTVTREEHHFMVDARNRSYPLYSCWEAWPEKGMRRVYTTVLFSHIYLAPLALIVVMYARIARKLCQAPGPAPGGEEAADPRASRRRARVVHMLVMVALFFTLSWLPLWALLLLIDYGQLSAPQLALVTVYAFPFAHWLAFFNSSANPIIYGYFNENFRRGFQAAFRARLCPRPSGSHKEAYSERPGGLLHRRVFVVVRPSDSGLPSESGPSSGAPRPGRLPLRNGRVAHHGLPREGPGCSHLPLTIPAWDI
UniProt Q9GZQ6, whole entry D294A: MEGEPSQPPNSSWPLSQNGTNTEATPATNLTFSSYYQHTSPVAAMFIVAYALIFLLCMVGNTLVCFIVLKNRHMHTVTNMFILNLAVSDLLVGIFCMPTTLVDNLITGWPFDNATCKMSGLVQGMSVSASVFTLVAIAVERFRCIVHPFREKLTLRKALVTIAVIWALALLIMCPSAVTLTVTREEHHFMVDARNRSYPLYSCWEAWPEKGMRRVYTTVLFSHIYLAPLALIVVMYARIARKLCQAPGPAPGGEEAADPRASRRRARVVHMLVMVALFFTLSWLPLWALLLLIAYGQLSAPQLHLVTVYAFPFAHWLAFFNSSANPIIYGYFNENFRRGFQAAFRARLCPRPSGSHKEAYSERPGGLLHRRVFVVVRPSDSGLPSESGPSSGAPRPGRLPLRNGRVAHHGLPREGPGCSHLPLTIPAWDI
UniProt Q9GZQ6, whole entry E205A: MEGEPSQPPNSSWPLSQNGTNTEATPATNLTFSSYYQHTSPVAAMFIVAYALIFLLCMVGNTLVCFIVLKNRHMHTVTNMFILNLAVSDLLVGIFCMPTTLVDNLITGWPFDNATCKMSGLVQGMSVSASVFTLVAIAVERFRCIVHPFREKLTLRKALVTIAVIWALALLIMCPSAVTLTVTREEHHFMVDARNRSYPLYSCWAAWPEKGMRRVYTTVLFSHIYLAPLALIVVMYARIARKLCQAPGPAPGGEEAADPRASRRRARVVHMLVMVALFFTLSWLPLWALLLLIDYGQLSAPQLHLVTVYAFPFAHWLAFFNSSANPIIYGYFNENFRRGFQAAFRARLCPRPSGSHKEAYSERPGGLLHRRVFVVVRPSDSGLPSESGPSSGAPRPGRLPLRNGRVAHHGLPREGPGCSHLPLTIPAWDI
UniProt Q9Y5X5: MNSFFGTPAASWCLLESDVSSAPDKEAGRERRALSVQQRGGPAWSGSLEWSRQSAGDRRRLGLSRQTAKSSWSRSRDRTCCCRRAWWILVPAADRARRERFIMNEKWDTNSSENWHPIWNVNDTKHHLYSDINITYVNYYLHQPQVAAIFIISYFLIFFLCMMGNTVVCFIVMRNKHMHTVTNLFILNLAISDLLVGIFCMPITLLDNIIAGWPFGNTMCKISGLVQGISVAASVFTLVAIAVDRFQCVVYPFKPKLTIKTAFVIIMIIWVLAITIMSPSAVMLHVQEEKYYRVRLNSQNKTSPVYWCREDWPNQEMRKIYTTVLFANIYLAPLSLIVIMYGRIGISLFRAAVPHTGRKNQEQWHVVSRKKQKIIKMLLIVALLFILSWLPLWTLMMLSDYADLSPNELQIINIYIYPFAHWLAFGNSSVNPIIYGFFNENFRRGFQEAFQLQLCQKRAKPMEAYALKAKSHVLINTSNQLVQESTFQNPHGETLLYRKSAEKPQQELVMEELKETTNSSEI

Test [2] deals with T1, Neuropeptide FF receptor 1 (Homo sapiens, UniProt Q9GZQ6). The experiment in a line: Agonist activity at human NPFF1 receptor expressed in […] assessed as [3H]inositol phosphate accumulation after 2 hrs by liquid scintillation counting. The test is classed as functional, cell-based, COS-1. In a few lines:
as §1

Test [3] concerns the target Neuropeptide FF receptor 1 (Homo sapiens, UniProt Q9GZQ6, Y309A). The test is described as follows: Agonist activity at human NPFF1 receptor Y7.33A mutant assessed as [3H]inositol phosphate accumulation after 2 hrs by liquid scintillation counting. The test is classed as functional. In a few lines: as §1
The target of test [4] is Neuropeptide FF receptor 1 (Homo sapiens, UniProt Q9GZQ6, F311A). The test is described as follows: Agonist activity at human NPFF1 receptor F/Y7.35A mutant assessed as [3H]inositol phosphate accumulation after 2 hrs by liquid scintillation counting. The test is classed as functional. The essentials:
as §1

Test [5] concerns the target Neuropeptide FF receptor 1 (Homo sapiens, UniProt Q9GZQ6, H304A). The test is described as follows: Agonist activity at human NPFF1 receptor H/Q6.69A mutant assessed as [3H]inositol phosphate accumulation after 2 hrs by liquid scintillation counting. The test is classed as functional.
For test [6], the target named is Neuropeptide FF receptor 1 (Homo sapiens, UniProt Q9GZQ6, D294A). The test is described as follows: Agonist activity at human NPFF1 receptor D6.59A mutant assessed as [3H]inositol phosphate accumulation after 2 hrs by liquid scintillation counting. It is filed as functional. The essentials: as §1
The target of test [7] is Neuropeptide FF receptor 1 (Homo sapiens, UniProt Q9GZQ6, E205A). The experiment in a line: Agonist activity at human NPFF1 receptor E5.27A mutant assessed as [3H]inositol phosphate accumulation after 2 hrs by liquid scintillation counting. It is filed as functional. In a few lines: as §1
The target of test [8] is T2, Neuropeptide FF receptor 2 (Homo sapiens, UniProt Q9Y5X5). The test is described as follows: Agonist activity at human NPFF2 receptor expressed in COS1 cells assessed as [3H]inositol phosphate accumulation at 10 uM after 2 hrs by liquid scintillation counting relative to NPFF. The test is classed as functional, cell-based. The following applies: COS-1.
Test [9] deals with T2, Neuropeptide FF receptor 2. The experiment in a line: Agonist activity at human NPFF2 receptor expressed in COS1 cells assessed as [3H]inositol phosphate accumulation after 2 hrs by liquid scintillation counting. The test is classed as functional, cell-based, COS-1.
Test [10] concerns the target T1, Neuropeptide FF receptor 1. The test is described as follows: Partial agonist activity at human NPFF1 receptor expressed in COS1 cells assessed as [3H]inositol phosphate accumulation at 10 uM after 2 hrs by liquid scintillation counting relative to NPVF. It is filed as functional, cell-based. The following applies: COS-1.

What is called EC50 is the midpoint of the concentration-response curve. With `CC(C)C[C@H](NC(=O)[C@H](CC(N)=O)NC(=O)[C@@H]1CCCN1C(=O)[C@@H](N)C(C)C)C(=O)N1CCC[C@H]1C(=O)N[C@@H](CCC(N)=O)C(=O)N[C@@H](CCCNC(=N)N)C(=O)N[C@@H](Cc1ccccc1)C(N)=O`, the EC50 was 314 nM in [1]; 1.7 nM in [2]; 4.9 nM in test [3]; 16 nM in test [4]; 7.7 nM in test [5]; 99 nM in test [6]. For the same compound, the EC50 in [7] came to 7.88 µM.
The term Emax denotes the size of the effect at its maximum, as opposed to the concentration needed. `N=C(N)N/N=C/c1ccc(Br)c(Br)c1`: the Emax in test [8] stood at 107%.
For the compound `N=C(N)N/N=C/c1ccc(Cl)c(C(F)(F)F)c1`, the EC50 in test [9] turned out to be 1190 nM. For the same compound, the Emax amounted to 92% in test [8] and 40% in [10].

The record behind these values is ChEMBL document CHEMBL2163262 (J Med Chem, 2012).
